Test results from patent US20070065520A1, “Mri contrast medium composition for oral administration” (priority 2003, published 2007).
Read-outs that look alike come from different tables or passages of the source.

Columns and labels:
[1] = not given; remark: listed apart in the source
[2] = not given; remark: listed apart in the source

Question: For manganese chloride [MnCl2], which “Liver Mean Mn” value (Ex. 1 Group 2: 100 μmol/kg MnCl2 only, oral gavage, liver 3 h after dose) is on record?
Answer: Its value is 44.4 nmol/g.

Question: What about the “Liver Mean Mn” value (Ex. 1 Group 3: 100 μmol/kg MnCl2 + 450 μmol/kg alanine + 60 IU/kg vitamin D3, Mn:Ala 1:4.5, oral, 3 h) of the same substance?
Answer: The value was 61.1 nmol/g.

Question: What about the “Liver Mean Mn” value (Ex. 1 Group 4: 100 μmol/kg MnCl2 + 300 μmol/kg alanine + 60 IU/kg vitamin D3, Mn:Ala 1:3, oral, 3 h) of the same substance?
Answer: Its value is 61.8 nmol/g.

Question: And the “Liver Mean Mn” value (Ex. 1 Group 5: 100 μmol/kg MnCl2 + 150 μmol/kg alanine + 60 IU/kg vitamin D3, Mn:Ala 1:1.5, oral, 3 h)?
Answer: The value was 76.1 nmol/g.

Question: And the “Liver Mean Mn” value (Ex. 1 Group 6: 100 μmol/kg MnCl2 + 450 μmol/kg alanine + 40 IU/kg vitamin D3, Mn:Ala 1:4.5, oral, 3 h)?
Answer: Its value is 66.4 nmol/g.

Question: What about the “Liver Mean Mn” value (Ex. 1 Group 7: 100 μmol/kg MnCl2 + 300 μmol/kg alanine + 40 IU/kg vitamin D3, Mn:Ala 1:3, oral, 3 h) of the same substance?
Answer: The value was 73.8 nmol/g.

Question: And the “Liver Mean Mn” value (Ex. 1 Group 8: 100 μmol/kg MnCl2 + 150 μmol/kg alanine + 40 IU/kg vitamin D3, Mn:Ala 1:1.5, oral, 3 h)?
Answer: Its value is 73.7 nmol/g.

Question: And the “Liver Mean Mn” value (Ex. 1 Group 9: 100 μmol/kg MnCl2 + 450 μmol/kg alanine + 20 IU/kg vitamin D3, Mn:Ala 1:4.5, oral, 3 h)?
Answer: Its value is 68.4 nmol/g.

Question: And the “Liver Mean Mn” value (Ex. 1 Group 10: 100 μmol/kg MnCl2 + 300 μmol/kg alanine + 20 IU/kg vitamin D3, Mn:Ala 1:3, oral, 3 h)?
Answer: The value was 69.8 nmol/g.

Question: And the “Liver Mean Mn” value (Ex. 1 Group 11: 100 μmol/kg MnCl2 + 150 μmol/kg alanine + 20 IU/kg vitamin D3, Mn:Ala 1:1.5, oral, 3 h)?
Answer: Its value is 72.6 nmol/g.

Question: What about the “Liver Mean Mn” value ([1]; Ex. 2 Group 2: 100 μmol/kg MnCl2 only, oral gavage, liver 3 h after dose) of the same substance?
Answer: Its value is 63.4 nmol/g.

Question: What about the “Liver Mean Mn” value ([1]; Ex. 2 Group 3: 100 μmol/kg MnCl2 + 150 μmol/kg alanine + 20 IU/kg vitamin D3, Mn:Ala 1:1.5, oral, 3 h) of the same substance?
Answer: The value was 69.9 nmol/g.

Question: What about the “Liver Mean Mn” value ([1]; Ex. 2 Group 4: 100 μmol/kg MnCl2 + 150 μmol/kg alanine + 10 IU/kg vitamin D3, Mn:Ala 1:1.5, oral, 3 h) of the same substance?
Answer: Its value is 72.7 nmol/g.

Question: What about the “Liver Mean Mn” value ([1]; Ex. 2 Group 5: 100 μmol/kg MnCl2 + 150 μmol/kg alanine + 5 IU/kg vitamin D3, Mn:Ala 1:1.5, oral, 3 h) of the same substance?
Answer: The value was 68.4 nmol/g.

Question: And the “Liver Mean Mn” value ([1]; Ex. 2 Group 6: 100 μmol/kg MnCl2 + 75 μmol/kg alanine + 20 IU/kg vitamin D3, Mn:Ala 1:0.75, oral, 3 h)?
Answer: Its value is 69.2 nmol/g.

Question: What about the “Liver Mean Mn” value ([1]; Ex. 2 Group 7: 100 μmol/kg MnCl2 + 75 μmol/kg alanine + 10 IU/kg vitamin D3, Mn:Ala 1:0.75, oral, 3 h) of the same substance?
Answer: The value was 73.8 nmol/g.

Question: What about the “Liver Mean Mn” value ([1]; Ex. 2 Group 8: 100 μmol/kg MnCl2 + 75 μmol/kg alanine + 5 IU/kg vitamin D3, Mn:Ala 1:0.75, oral, 3 h) of the same substance?
Answer: The value was 72.0 nmol/g.

Question: And the “Liver Mean Mn” value ([1]; Ex. 2 Group 9: 100 μmol/kg MnCl2 + 37.5 μmol/kg alanine + 20 IU/kg vitamin D3, Mn:Ala 1:0.375, oral, 3 h)?
Answer: The value was 72.6 nmol/g.

Question: What about the “Liver Mean Mn” value ([1]; Ex. 2 Group 10: 100 μmol/kg MnCl2 + 37.5 μmol/kg alanine + 10 IU/kg vitamin D3, Mn:Ala 1:0.375, oral, 3 h) of the same substance?
Answer: The value was 79.8 nmol/g.

Question: What about the “Liver Mean Mn” value ([1]; Ex. 2 Group 11: 100 μmol/kg MnCl2 + 37.5 μmol/kg alanine + 5 IU/kg vitamin D3, Mn:Ala 1:0.375, oral, 3 h) of the same substance?
Answer: The value was 73.1 nmol/g.

Question: And the “Liver Mean Mn” value ([2]; Ex. 3 Group 2: 100 μmol/kg MnCl2 only, oral gavage)?
Answer: The value was 114.0 nmol/g.

Question: What about the “Liver Mean Mn” value ([2]; Ex. 3 Group 3: 50 μmol/kg MnCl2 + 100 μmol/kg alanine, no vitamin D3, Mn:Ala 1:2, oral) of the same substance?
Answer: The value was 95.3 nmol/g.

Question: And the “Liver Mean Mn” value ([2]; Ex. 3 Group 4: 100 μmol/kg MnCl2 + 200 μmol/kg alanine, no vitamin D3, Mn:Ala 1:2, oral)?
Answer: Its value is 110.3 nmol/g.

Question: And the “Liver Mean Mn” value ([2]; Ex. 3 Group 5: 100 μmol/kg MnCl2 + 50 μmol/kg alanine, no vitamin D3, Mn:Ala 1:0.5, oral)?
Answer: Its value is 128.8 nmol/g.

Question: And the “Liver Mean Mn” value ([2]; Ex. 3 Group 6: 100 μmol/kg MnCl2 + 25 μmol/kg alanine, no vitamin D3, Mn:Ala 1:0.25, oral)?
Answer: The value was 115.9 nmol/g.

Question: What about the “Liver Mean Mn” value ([2]; Ex. 3 Group 7: 100 μmol/kg MnCl2 + 50 μmol/kg alanine + 10 IU/kg vitamin D3, Mn:Ala 1:0.5, oral, 1 animal excluded since no Mn was taken up) of the same substance?
Answer: The value was 133.8 nmol/g.

Question: What about the “Liver Mean Mn” value ([2]; Ex. 3 Group 8: 100 μmol/kg MnCl2 + 25 μmol/kg alanine + 10 IU/kg vitamin D3, Mn:Ala 1:0.25, oral) of the same substance?
Answer: The value was 117.8 nmol/g.
